Only a part is listed here, and it is no random draw. Active and inactive are the calls of the source. No stated cut-off is given here; in the data, active means growth rescue above about 28% (passing the limit was not always enough); inconclusive means no clear call, values can overlap the other calls.
Experiment: rescue of yeast from PfHsp40 toxicity, primary screen, S. cerevisiae, ATP luminescence (AID 504582);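 further: yeast W303a lacking pdr1 and pdr3 grown in galactose medium; growth measured after three days at 30 °C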
Conditions: S. cerevisiae expressing PfHsp40, growth rescue, at 12.5 µM, stronger effect = higher value

Row | Structure (SMILES) | growth rescue
1 | CCC(=O)N(c1ccccc1)C1(COC)CCN(CCc2cccs2)CC1 | inactive: -0.336%
2 | CCC(=O)N(c1ccccc1)C1(COC)CCN(CCn2nnn(CC)c2=O)CC1 | inactive: 0.728%
